Source: paper PMC8968063, “Key features of inhibitor binding to the human mitochondrial pyruvate carrier hetero-dimer” (Molecular Metabolism, 2022)

The chains behind the UniProt entries cited, without tags or fusion partners. Residues count along the entry.
UniProt O95563, 2-127 limits assumed: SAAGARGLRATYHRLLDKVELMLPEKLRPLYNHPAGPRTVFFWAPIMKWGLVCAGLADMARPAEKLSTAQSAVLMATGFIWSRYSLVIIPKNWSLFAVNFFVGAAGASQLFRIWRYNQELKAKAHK
UniProt P0DKB6, 2-136 limits assumed: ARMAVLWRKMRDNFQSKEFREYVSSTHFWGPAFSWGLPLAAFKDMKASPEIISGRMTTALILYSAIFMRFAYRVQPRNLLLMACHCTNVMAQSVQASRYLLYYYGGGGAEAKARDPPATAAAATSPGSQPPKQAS

Key:
[1] = molecular target: human MPC1L/MPC2 hetero-dimer (Homo sapiens, UniProt O95563+P0DKB6); experiment: Inhibition of [14C]-pyruvate homo-exchange in MPC1L/MPC2 proteoliposomes; type: biochemical; details: read-out: IC50 of pyruvate transport inhibition, 50 μM [14C]-pyruvate homo-exchange, mean ± s.d., listed as compound 2
human MPC1L/MPC2 complex = human MPC1L/MPC2 complex (Homo sapiens, UniProt O95563+P0DKB6); experiment: CPM thermostability shift assay, purified MPC1L/MPC2; type: binding; details: inhibitor 100 μM
Description: The assessment of ligand binding was performed via shifts in protein thermostability upon binding using thermal denaturation on a rotary quantitative PCR (qPCR) instrument (Qiagen Rotor-Gene Q 2plex HRM, Venlo, Netherlands), as previously described. In this method, cysteine residues, buried within the protein structure, become solvent-exposed during denaturation in a temperature ramp and then react with 7-diethylamino-3-(4-maleimidophenyl)-4-methylcoumarin (CPM) to form fluorescent-adducts. Briefly, a CPM working solution was prepared by diluting the CPM stock (5 mg/mL in dimethyl sulfoxide) 50-fold into assay buffer (20 mM Tris–HCl, pH 7.4, 150 mM NaCl, 0.1% (w/v) LMNG, 0.1 mg/mL TOCL) and incubated for 10 min at room temperature. In each analysis, performed in duplicates or triplicates, 3 μg of purified MPC was diluted into 45 μL of assay buffer containing the desired concentration of the inhibitor then incubated for 10 min on ice. Next, 5 μL of the CPM working solution were added. Samples were incubated on ice for an additional 10 min then subjected to a temperature ramp of 5.6 °C/min. The fluorescence increase was monitored with the HRM channel of the instrument (excitation at 440–480 nm, emission at 505–515 nm). Unfolding profiles were analysed with the Rotor-Gene Q software 2.3, and the peaks of their derivatives were used to determine the apparent melting temperature.

- IC50 [1]: 12.4 nM
- ∆Tm, CPM assay (thermal shift compared to no-ligand control) (human MPC1L/MPC2 complex): 12.1 ± 1.1 °C
- Tm, CPM assay (human MPC1L/MPC2 complex; unliganded 51.3 ± 0.2, mean ± s.d., 3 biological repeats): 63.4 ± 0.9 °C
SMILES: N#CC(=Cc1ccc(-c2ccccc2)o1)C(=O)O
